Target: Cdk5 (Cyclin-dependent kinase 5) (Homo sapiens, UniProt Q00535)
Test: Z'-LYTE fluorescence-based in vitro kinase assay, 10-point dose-response

By UniProt entry, the sequences of proteins in these tests, tags left out. Residues count along the entry.
UniProt Q00535, whole entry: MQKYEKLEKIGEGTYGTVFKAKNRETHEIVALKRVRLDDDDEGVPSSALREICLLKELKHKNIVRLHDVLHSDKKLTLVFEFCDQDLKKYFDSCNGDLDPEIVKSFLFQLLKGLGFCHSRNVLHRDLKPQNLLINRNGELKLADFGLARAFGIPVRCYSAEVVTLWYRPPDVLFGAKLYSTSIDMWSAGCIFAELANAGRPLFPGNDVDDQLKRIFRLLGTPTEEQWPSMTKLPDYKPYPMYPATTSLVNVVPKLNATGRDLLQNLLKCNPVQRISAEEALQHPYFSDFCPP
UniProt Q15078, 2-307 partner limits assumed: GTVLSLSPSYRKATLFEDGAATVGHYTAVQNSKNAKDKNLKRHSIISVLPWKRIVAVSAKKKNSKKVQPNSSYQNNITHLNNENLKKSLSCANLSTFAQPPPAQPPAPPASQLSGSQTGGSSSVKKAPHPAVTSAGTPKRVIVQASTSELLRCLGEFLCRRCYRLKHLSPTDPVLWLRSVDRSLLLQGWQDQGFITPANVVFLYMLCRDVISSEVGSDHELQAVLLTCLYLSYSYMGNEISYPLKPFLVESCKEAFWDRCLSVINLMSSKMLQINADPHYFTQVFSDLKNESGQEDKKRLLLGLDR

IC50 | SMILES
3430 nM | O=C(NCCc1cccnc1)N1CC=C(c2c[nH]c3ncccc23)CC1
1270 nM | COCCNc1nc(Nc2ccc(OC)c(OC)c2)nc2[nH]cnc12

— publication PMC9502400
